Assay results as given in article PMC4506051, “Pharmacokinetic Profiles of Active Ingredients and Its Metabolites Derived from Rikkunshito, a Ghrelin Enhancer, in Healthy Japanese Volunteers: A Cross-Over, Randomized Study” (PLoS ONE, 2015).

What was measured:
[1] = of the ingredient in the formulation; summary table, reference not given; cited from earlier work
[2] = Formation of ingredients derived from rikkunshito in formulation, blood, and urine (S11 Table summary); conditions: after rikkunshito administration, per ingredient in the formulation; for Formation of ingredients: form found in Urine: BQL = below the quantification limit
[3] = Exploratory trial: plasma concentration of rikkunshito ingredients after single oral rikkunshito 7.5 g; assay type: in vivo; conditions: mean ± S.D., n = 4
Procedure: A random sequence was generated using a computer. The safety endpoint was evaluated in all volunteers.
(§1) In the first exploratory trial, 20-mL blood samples were collected from the cutaneous vein in the subjects’ forearm via a blood sampling tube that contained heparin at 0 (preadministration), 0.5, 1, 2, 4, and 8 h after a single oral administration of rikkunshito (Lot E24652). The dose of rikkunshito used in this trial was 7.5 g/day, which is the clinical daily dose, to widely explore rikkunshito-derived ingredients that enter the blood. Along with plasma, urine samples were collected at three points: between dinner and bedtime (preadministration), between 0 and 4 h after administration, and between 4 and 8 h after administration. The blood was immediately centrifuged at 1700 ×g for 10 min to obtain plasma. Plasma and urine fractions were stored at −80°C or lower until analysis.
(§2) For quantification of synephrine, 5 µL of standard solution or methanol was added to 100 µL plasma or urine samples followed by mixing. Ten microliters of erythromycin [internal standard (IS)] solution was added to the solutions followed by mixing and centrifugation (20,400 ×g, 5 min, 4°C). The supernatants were loaded onto an Ostro 96-well plate (Waters) and centrifuged (1500 ×g, 3 min, 4°C) followed by injection into the LC–MS/MS.
(§3) For quantification of 30 ingredients other than atractylodin and synephrine, 25 µL of standard solution or methanol was added to 500 µL plasma or urine samples followed by mixing. Atractylenolide III or digoxin (IS) solution (50 μL) was added to the solutions followed by mixing. For urine, 400 µL of blank plasma was added to the solutions. Ammonium acetate solution (100 mM, 100 or 400 µL) was added to the solutions followed by mixing. For enzymatic treatment, plasma and urine samples were incubated with β-glucuronidase (100 units in 100 mM ammonium acetate) for 2 h at 37°C. A solid-phase cartridge (OASIS HLB, 30 mg/1cc, Waters) was conditioned with methanol and 10 mM ammonium acetate solution, and the samples were loaded onto the cartridge. The cartridge was washed water : methanol (9:1, v/v), and 1.5 mL of methanol and 30 µL of propylene glycol were added to the cartridge to elute the analytes. The mixtures were dried at 25°C under a stream of nitrogen gas. Furthermore, 100 μL of 10 mM ammonium acetate : methanol (8:2, v/v) was added to the dried samples followed by mixing and sonication. The solutions were filtered (0.22 µm) and followed by injection into the LC–MS/MS system. […] Those analytical conditions are summarized in S2 Table and S3 Table.

[4] = Exploratory trial: amount of rikkunshito ingredients in urine; assay type: in vivo, human; conditions: mean ± S.D., n = 4; for Amount in urine, 0–4 h: 0–4 h after single oral rikkunshito 7.5 g
Procedure: as §1, §2, §3

[5] = Stability of ingredients in gastric pH solution (pH 1.2, 37°C); assay type: physicochemical; conditions: rikkunshito in acidic solution (pH 1.2) at 37°C
Procedure: Rikkunshito gradually dissolved in acidic solution (pH 1.2) at 37°C, and the concentration of atractylodin after adding 0.25, 0.5, 1, and 2 h was measured by gas chromatography–mass spectrometry.

Row | Substance | Metabolite by enterobacterium [1] | Formation of ingredients: form found in Blood [2] | Formation of ingredients: form found in Urine [2] | Plasma concentration, 0 h ([3]; 0 h (preadministration), single oral rikkunshito 7.5 g) | Plasma concentration, 0.5 h ([3]; 0.5 h after single oral rikkunshito 7.5 g) [ng/mL] | Plasma concentration, 1 h ([3]; 1 h after single oral rikkunshito 7.5 g) [ng/mL] | Plasma concentration, 2 h ([3]; 2 h after single oral rikkunshito 7.5 g) [ng/mL] | Plasma concentration, 4 h ([3]; 4 h after single oral rikkunshito 7.5 g) [ng/mL] | Plasma concentration, 8 h ([3]; 8 h after single oral rikkunshito 7.5 g) | Amount in urine, 0–4 h [4] [ng] | Amount in urine, 0–4 h ([4]; listed as liquiritin apioside) | Amount in urine, 4–8 h ([4]; 4–8 h after single oral rikkunshito 7.5 g) [ng] | Amount in urine, Pre ([4]; preadministration (between dinner and bedtime)) | Stability in gastric pH solution, Quantitative value ([5]; 0.5 h) [ng/mL] | Stability in gastric pH solution, Quantitative value ([5]; 1 h) [ng/mL] | Stability in gastric pH solution, Quantitative value ([5]; 2 h) [ng/mL]
1 | isoliquiritin apioside | Isoliquiritigenin | Isoliquiritigenin Conjugate metabolites of isoliquiritigenin | Isoliquiritigenin Conjugate metabolites of isoliquiritigenin | – | – | – | – | – | – | – | – | – | – | – | – | –
2 | Liquiritin apioside | Liquiritigenin^b | Liquiritin apioside Liquiritigenin^c | Liquiritin apioside Liquiritigenin^c | BQL | 0.34 ± 0.0918 | 0.473 ± 0.0942 | 0.42 ± 0.163 | 0.204 ± 0.139 | BQL | 4330 ± 1530 | 4,330 ng | 2370 ± 1080 | BQL | 1250 | 1340 | 1190
